Assay results reported in patent publication US20030206891A1, “Rapamycin-based biological regulation” (ARIAD Gene Therapeutics, Inc., priority 1995, published 2003).

Protein sequences, listed by entry. Tags and fused reporters are not part of them. Lines headed by an entry give the natural chain unless they say otherwise; changes in a name come on top.
UniProt P62942: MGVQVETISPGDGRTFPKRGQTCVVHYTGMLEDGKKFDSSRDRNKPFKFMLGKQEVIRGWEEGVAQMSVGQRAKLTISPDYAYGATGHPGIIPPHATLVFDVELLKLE

Experiments:
[1] = biological target: ZFHD1-3FKBP and 1FRB-p65(361-550) fusion proteins in HT1080 cells (Homo sapiens, UniProt P42345+P62942); assay: Rapamycin-dependent SEAP transcriptional activation in transiently transfected HT1080 cells; format: cell-based
[2] = biological target: ZFHD1-3FKBP and 1FRB-p65(361-550) stably integrated in HT1080 cells (Homo sapiens, UniProt P42345+P62942); assay: Rapamycin-dependent SEAP production in stably transfected HT1080 cell lines (HT20-6 clone, HT23 pool); format: cell-based

CO[C@H]1C[C@@H]2CC[C@@H](C)[C@@](O)(O2)C(=O)C(=O)N2CCCC[C@H]2C(=O)O[C@H]([C@H](C)C[C@@H]2CC[C@@H](O)[C@H](OC)C2)CC(=O)[C@H](C)/C=C(\C)[C@@H](O)[C@@H](OC)C(=O)[C@H](C)C[C@H](C)/C=C/C=C/C=C/1C [rapamycin, Rapamycin]
rapamycin concentration at which SEAP secretion was detectable (as low as) ([1]; transiently transfected HT1080, 24 hours, FIG. 4A): 0.5 nM | rapamycin concentration of peak SEAP secretion ([1]; transiently transfected HT1080, FIG. 4A): 5 nM | SEAP production in pool of clones with bicistronic vector ([2]; HT23 pool, FIG. 4D): rapamycin-dependent SEAP production with no detectable background | SEAP activity ([2]; stable clone, extended SEAP assay, at 1100 nM rapamycin): over 90,000 arbitrary fluorescence units
